The values that follow are results of earlier work, collected in patent US6479509B1, “Method of promoting smoking cessation” (priority 2000, dated 2002).

Amino acid sequences for entries named in this document (tags omitted).
UniProt P31652, whole entry: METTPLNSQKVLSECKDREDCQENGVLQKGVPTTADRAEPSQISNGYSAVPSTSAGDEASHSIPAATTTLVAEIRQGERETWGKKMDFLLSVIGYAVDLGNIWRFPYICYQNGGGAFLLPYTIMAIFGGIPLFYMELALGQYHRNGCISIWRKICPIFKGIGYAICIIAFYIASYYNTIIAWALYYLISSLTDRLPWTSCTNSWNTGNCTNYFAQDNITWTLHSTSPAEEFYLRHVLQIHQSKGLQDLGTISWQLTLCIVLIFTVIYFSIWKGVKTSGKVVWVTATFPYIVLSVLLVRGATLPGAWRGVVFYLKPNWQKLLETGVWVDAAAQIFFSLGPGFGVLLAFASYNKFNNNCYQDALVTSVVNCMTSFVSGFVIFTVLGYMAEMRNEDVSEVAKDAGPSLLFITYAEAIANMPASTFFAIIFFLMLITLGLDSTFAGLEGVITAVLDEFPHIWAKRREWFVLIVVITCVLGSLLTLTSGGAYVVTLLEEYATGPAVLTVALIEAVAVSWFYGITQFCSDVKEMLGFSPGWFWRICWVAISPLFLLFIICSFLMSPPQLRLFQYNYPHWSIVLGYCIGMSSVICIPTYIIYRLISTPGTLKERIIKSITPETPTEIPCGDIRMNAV

This data set has as its target T1, Serotonin transporter (Rattus norvegicus, UniProt P31652).
T1 construct: from tissue; host or cells: brain
Particulars: brain; read-out: Serotonin [3H]Paroxetine IC50; cited from earlier work.

Regarding `COC(=O)[C@H]1[C@@H](c2ccccc2)C[C@@H]2CC[C@H]1N2C` [WIN 35,065-2, reference compound], the IC50 (commonly the concentration needed to halve the response being measured) is 1.96 µM.
